pKd: −log10 of the molar value.
Test system: S5M1 peptide
Experiment: filter binding

Substance: HCV IRES 18-383 WT
- pKd: 5.25
